From PubChem BioAssay AID1700 (The Scripps Research Institute Molecular Screening Center, 2009)
The entries are a selection whose mix differs from that of the whole data set. Some of these compounds have results that are not shown, active ones among them. The source made the active and inactive calls.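 The calls were made as follows: active = inhibition above a per-plate limit of that plate's mean compound inhibition plus 3 SD (cut at about 60% in these data); inactive = the rest.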

Experiment: KLF5 expression inhibitors, primary screen, DLD-1 cells, luminescence (AID 1700);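 also: 0% = DMSO wells and 100% = LY294002 at 200 µM; higher means less KLF5 promoter-driven luciferase light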
Settings: DLD-1 KLF5 promoter-luciferase reporter, at 5 µM, active compounds read high

Compound | inhibition
COc1cccc(C(=O)NCC2(N3CCCCC3)CCCCC2)c1 | inactive: -13.1%
COc1ccc(Cl)cc1C(=O)NCC1(N(C)C)CCCCC1 | inactive: -6.16%
O=C(NCC1(N2CCCCC2)CCCCC1)c1cccc(Cl)c1 | inactive: -9.73%
CN(C)C1(CNC(=O)c2ccc(Br)cc2)CCCCC1 | inactive: -25.1%
COc1cc(C(=O)NCC2(N(C)C)CCCCC2)c([N+](=O)[O-])cc1OC | inactive: -4.28%
COc1ccc(Br)c(C(=O)NCC2(N3CCCCC3)CCCCC2)c1 | inactive: -2.38%
CC(C)Oc1ccc(C(=O)NCC2(N(C)C)CCCCC2)cc1 | inactive: 3.49%
CN(C)c1cccc(C(=O)NCC2(N(C)C)CCCCC2)c1 | inactive: -9.46%
O=C(OC1CN2CCC1CC2)C(CO)(c1ccccc1)c1ccccc1 (centres undefined) | inactive: -21.6%
CCN(CC)CC(C)C(C)OC(=O)C(O)(c1ccccc1)c1ccccc1 (centres undefined) | inactive: -11%
COc1cc(SC)ccc1C(=O)NCC1(N(C)C)CCCCC1 | inactive: -17.3%
CC(C)N1C(=O)CC2(CCN(CCOC(=O)C(O)(c3ccccc3)c3ccccc3)CC2)C1=O | inactive: 14.3%
Cc1ccc(C(=O)NCC2(N3CCCCC3)CCCCC2)cc1 | inactive: 24.7%
O=C(NCC1(N2CCCCC2)CCCCC1)c1cc([N+](=O)[O-])ccc1Cl | inactive: -25%
CN1[C@@H]2CC[C@H]1CC(OC(=O)C(O)(c1ccccc1)c1ccccc1)C2 (some centres undefined) | inactive: -27.2%
C=CCN1CCN(CCOC(=O)C(O)(c2ccccc2)c2ccccc2)CC1 | inactive: -3.39%
O=C(NCC1(N2CCCCC2)CCCCC1)c1cc(F)c(F)cc1Cl | inactive: 2.43%
COc1ccc(C(=O)NCC2(N(C)C)CCCCC2)cc1 | inactive: -25.1%
CCN1CCCC(OC(=O)C2(O)c3ccccc3C=Cc3ccccc32)C1 (centres undefined) | inactive: -6.29%
Cc1cc(C(=O)NCC2(N3CCCCC3)CCCCC2)ccc1[N+](=O)[O-] | inactive: 26.9%
O=C(NCC1(N2CCCCC2)CCCCC1)c1cccc(Br)c1 | inactive: -23.1%
Cc1ccccc1C(=O)NCC1(N2CCCCC2)CCCCC1 | inactive: 0.27%
CN(C)c1ccc(C(=O)NCC2(N(C)C)CCCCC2)cc1 | inactive: -36.9%
CN(C)C1CCCC1OC(=O)C(O)(c1ccccc1)c1ccccc1 (centres undefined) | inactive: -29.1%
